One may read the IC50 as the concentration at which inhibition is half-maximal.

Amino acid sequences for entries named in this document (tags omitted). Residues count along the entry.
UniProt P22455, 22-802: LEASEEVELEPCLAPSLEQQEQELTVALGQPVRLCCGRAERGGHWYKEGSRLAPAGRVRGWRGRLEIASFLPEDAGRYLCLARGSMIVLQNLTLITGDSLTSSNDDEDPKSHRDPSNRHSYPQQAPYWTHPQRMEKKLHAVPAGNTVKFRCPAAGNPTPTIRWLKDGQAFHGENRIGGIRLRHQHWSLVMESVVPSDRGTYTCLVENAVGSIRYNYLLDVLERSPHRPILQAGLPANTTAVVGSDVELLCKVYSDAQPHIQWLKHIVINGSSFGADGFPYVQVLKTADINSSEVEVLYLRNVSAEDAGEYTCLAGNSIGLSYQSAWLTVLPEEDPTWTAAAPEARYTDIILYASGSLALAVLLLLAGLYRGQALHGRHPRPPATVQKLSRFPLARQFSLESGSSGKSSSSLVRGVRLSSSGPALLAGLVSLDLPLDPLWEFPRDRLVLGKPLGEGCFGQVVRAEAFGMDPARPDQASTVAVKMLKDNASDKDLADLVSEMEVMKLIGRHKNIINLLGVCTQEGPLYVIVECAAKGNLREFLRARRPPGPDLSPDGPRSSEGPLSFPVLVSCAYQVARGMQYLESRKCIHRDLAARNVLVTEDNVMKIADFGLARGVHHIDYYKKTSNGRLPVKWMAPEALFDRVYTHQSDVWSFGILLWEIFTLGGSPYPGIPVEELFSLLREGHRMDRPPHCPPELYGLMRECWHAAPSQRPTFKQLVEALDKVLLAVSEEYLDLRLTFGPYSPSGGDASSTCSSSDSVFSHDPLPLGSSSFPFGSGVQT

Read-outs that look alike come from different tables or passages of the source. A value given as a limit tells only on which side of the number the result lay.

The source of these data is US9580423B2, “Bicyclic heterocycles as FGFR4 inhibitors” (Incyte Corporation, priority 2015, dated 2017).

The target in the experiment is FGFR4 (Homo sapiens (Human), UniProt P22455). In words: FGFR Enzymatic Assay (FRET peptide phosphorylation), FGFR4. Conditions: read-out: FGFR4 IC50.

For `C=CC(=O)Nc1cc(-c2cc3c(cn2)CN(c2c(F)c(OC)cc(OC)c2F)C(=O)C32CC2)ccn1` [Example 4, N-(4-(2′-(2,6-difluoro-3,5-dimethoxyphenyl)-3′-oxo-2′,3′-dihydro-1′H-spiro[cyclopropane-1,4′-[2,7]naphthyridine]-6′-yl)pyridin-2-yl)acrylamide], the IC50 (pre-incubated for 5 to 10 minutes) was less than 10 nM and the 50% inhibitory concentration (IC50) (pre-incubated for 4 hours) was less than 10 nM.
